Assay results published in ChEMBL document CHEMBL4000154, “Pyristriatins A and B: Pyridino-Cyathane Antibiotics from the Basidiomycete Cyathus cf. striatus” (J Nat Prod, 2016).

Tested on: Pseudomonas aeruginosa
Test: Antibacterial activity against Pseudomonas aeruginosa PA14 after 24 to 48 hrs by serial dilution method
Format: functional

Sequence: GENTAMICIN
- MIC: 0.5 µg/mL
